Our source for the IC50 values is ChEMBL document CHEMBL1136402, “Characterization of HERG potassium channel inhibition using CoMSiA 3D QSAR and homology modeling approaches” (Bioorg Med Chem Lett, 2003).

Amino acid sequences for entries named in this document (tags omitted). A change or cut given only in a name is not applied to a line headed by its entry.
UniProt Q12809: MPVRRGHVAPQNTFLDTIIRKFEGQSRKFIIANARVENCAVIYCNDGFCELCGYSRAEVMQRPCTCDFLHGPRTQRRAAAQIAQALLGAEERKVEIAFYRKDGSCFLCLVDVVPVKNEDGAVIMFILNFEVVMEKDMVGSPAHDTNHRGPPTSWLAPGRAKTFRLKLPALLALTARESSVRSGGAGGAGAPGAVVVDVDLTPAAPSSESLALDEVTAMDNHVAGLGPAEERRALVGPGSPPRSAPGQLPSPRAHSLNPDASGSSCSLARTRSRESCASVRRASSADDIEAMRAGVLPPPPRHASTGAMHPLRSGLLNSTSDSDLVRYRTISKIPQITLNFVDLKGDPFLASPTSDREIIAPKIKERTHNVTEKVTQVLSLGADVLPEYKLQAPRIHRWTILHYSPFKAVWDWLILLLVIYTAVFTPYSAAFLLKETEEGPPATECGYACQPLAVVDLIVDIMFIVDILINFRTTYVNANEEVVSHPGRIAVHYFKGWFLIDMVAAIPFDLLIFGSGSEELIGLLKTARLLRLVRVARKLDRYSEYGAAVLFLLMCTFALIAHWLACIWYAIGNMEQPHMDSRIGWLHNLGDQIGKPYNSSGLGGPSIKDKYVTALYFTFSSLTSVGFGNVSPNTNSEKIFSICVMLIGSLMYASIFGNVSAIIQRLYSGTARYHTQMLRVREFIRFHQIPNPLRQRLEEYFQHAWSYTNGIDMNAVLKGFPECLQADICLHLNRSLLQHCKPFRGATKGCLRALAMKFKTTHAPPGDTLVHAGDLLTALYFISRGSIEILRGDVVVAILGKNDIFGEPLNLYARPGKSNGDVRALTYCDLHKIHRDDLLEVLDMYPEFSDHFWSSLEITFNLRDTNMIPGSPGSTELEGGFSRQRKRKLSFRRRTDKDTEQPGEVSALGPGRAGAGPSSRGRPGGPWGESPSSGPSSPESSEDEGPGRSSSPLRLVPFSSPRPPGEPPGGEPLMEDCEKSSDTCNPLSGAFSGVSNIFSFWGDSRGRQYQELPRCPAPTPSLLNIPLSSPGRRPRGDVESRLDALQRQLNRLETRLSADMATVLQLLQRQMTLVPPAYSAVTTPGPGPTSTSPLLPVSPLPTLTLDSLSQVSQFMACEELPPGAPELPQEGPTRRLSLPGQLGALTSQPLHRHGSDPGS

This assay concerns the target Voltage-gated inwardly rectifying potassium channel KCNH2 (Homo sapiens, UniProt Q12809). As to the kind of experiment: Inhibition of K+ channel activity in CHO cells expressing HERG Kv11.1.

Take `CCC(CC)c1cn(-c2ccc(F)cc2)c2ccc(Cl)cc12`: the IC50 was 1480 nM.
